Measurements reported in patent US9714247B2, “Multiple kinase pathway inhibitors” (Mannkind Corporation, priority 2012, dated 2017).

Protein sequences, listed by entry. Tags and fused reporters are not part of them. Lines headed by an entry give the natural chain unless they say otherwise; changes in a name come on top.
UniProt P12931, whole entry, looked up: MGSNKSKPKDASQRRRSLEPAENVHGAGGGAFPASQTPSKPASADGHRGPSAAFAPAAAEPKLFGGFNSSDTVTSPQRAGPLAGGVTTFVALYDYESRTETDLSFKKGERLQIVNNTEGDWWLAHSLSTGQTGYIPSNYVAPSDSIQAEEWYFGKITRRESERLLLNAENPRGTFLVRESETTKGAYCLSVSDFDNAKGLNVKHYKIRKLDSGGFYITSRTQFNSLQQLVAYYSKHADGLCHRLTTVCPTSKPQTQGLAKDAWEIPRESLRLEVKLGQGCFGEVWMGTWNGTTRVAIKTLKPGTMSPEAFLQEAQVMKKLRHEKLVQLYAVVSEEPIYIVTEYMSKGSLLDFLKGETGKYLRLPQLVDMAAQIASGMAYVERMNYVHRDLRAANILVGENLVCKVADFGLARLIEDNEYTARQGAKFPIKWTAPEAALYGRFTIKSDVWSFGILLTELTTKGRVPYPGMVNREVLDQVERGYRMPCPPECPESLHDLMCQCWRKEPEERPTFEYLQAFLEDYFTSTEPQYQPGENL
UniProt Q06187: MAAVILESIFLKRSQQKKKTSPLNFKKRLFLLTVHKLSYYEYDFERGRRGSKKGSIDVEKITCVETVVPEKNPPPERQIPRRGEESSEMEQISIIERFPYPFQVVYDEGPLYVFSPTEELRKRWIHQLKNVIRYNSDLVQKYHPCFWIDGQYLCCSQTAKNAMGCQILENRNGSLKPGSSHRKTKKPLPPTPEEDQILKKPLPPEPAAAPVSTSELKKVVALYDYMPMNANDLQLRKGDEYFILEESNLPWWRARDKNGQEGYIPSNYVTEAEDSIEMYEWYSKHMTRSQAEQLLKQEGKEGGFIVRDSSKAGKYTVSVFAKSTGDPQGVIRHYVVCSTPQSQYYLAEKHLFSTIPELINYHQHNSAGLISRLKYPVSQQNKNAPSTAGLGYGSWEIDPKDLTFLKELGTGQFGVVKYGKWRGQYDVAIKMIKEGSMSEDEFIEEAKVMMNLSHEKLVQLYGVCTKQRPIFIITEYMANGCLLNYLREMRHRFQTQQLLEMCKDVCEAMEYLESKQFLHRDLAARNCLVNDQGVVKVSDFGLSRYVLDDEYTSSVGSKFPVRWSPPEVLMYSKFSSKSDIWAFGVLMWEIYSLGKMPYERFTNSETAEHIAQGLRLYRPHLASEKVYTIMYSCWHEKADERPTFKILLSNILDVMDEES

Target: T1, Src (Homo sapiens (Human), UniProt P12931)
Test: not given
Settings: read-out: Src IC50

Row | Compound | IC50
1 | CCn1c(=O)c(-c2cc(OC)ccc2F)cc2cnc(Nc3ccc(N(C)C4CCN(C)CC4)cn3)cc21 [Compound 119, 1-ethyl-3-(2-fluoro-5-methoxyphenyl)-7-((5-(methyl(1-methylpiperidin-4-yl)amino)pyridin-2-yl)amino)-1,6-naphthyridin-2(1H)-one] | < 100 nM

Target: T1, Src
Test: biochemical
Settings: not given

Row | Compound | IC50
2 | CCn1c(=O)c(-c2cc(SC)ccc2F)cc2cnc(Nc3ccc(N(C)C4CCN(C)CC4)cn3)cc21 [Compound 116, 1-ethyl-3-(2-fluoro-5-(methylthio)phenyl)-7-((5-(methyl(1-methylpiperidin-4-yl)amino)pyridin-2-yl)amino)-1,6-naphthyridin-2(1H)-one] | 100 to 1000 nM

Target: BTK (Homo sapiens (Human), UniProt Q06187)
Test: not given
Settings: not given

Row | Compound | IC50
3 | O=c1c(-c2c(F)cccc2F)cc2cnc(Nc3ccc(F)cn3)cc2n1C1CCOC1 (single isomer, unassigned) [Compound 141, (S or R)-3-(2,6-difluorophenyl)-7-((5-fluoropyridin-2-yl)amino)-1-(tetrahydrofuran-3-yl)-1,6-naphthyridin-2(1H)-one] | < 100 nM
4 | O=c1c(-c2c(F)cccc2F)cc2cnc(Nc3ccc(F)cn3)cc2n1C1CCOCC1 [Compound 80, 3-(2,6-difluorophenyl)-7-((5-fluoropyridin-2-yl)amino)-1-(tetrahydro-2H-pyran-4-yl)-1,6-naphthyridin-2(1H)-one] | 100 to 1000 nM
5 | O=c1c(-c2c(F)cccc2F)cc2cnc(Nc3ccc(F)cn3)cc2n1-c1ccccc1 [Compound 81, 3-(2,6-difluorophenyl)-7-((5-fluoropyridin-2-yl)amino)-1-phenyl-1,6-naphthyridin-2(1H)-one] | 100 to 1000 nM
6 | O=c1c(-c2c(F)cccc2F)cc2cnc(Nc3ccc(F)cn3)cc2n1C1CCOC1 (stereo not drawn) [Compound 83, 3-(2,6-difluorophenyl)-7-((5-fluoropyridin-2-yl)amino)-1-(tetrahydrofuran-3-yl)-1,6-naphthyridin-2(1H)-one] | 100 to 1000 nM
7 | CN1CCC(n2c(=O)c(-c3c(F)cccc3F)cc3cnc(Nc4ccc(F)cn4)cc32)C1 (stereo not drawn) [Compound 85, 3-(2,6-difluorophenyl)-7-((5-fluoropyridin-2-yl)amino)-1-(1-methylpyrrolidin-3-yl)-1,6-naphthyridin-2(1H)-one] | 1000 to 5000 nM
8 | CCN(CC)CCOc1ccc(Nc2cc3c(cn2)cc(-c2ccccc2)c(=O)n3CC)cc1 [Compound 86] | 100 to 1000 nM
9 | CCn1c(=O)c(-c2cc(SC)ccc2F)cc2cnc(Nc3ccc(N(C)C4CCN(C)CC4)cn3)cc21 [Compound 116, 1-ethyl-3-(2-fluoro-5-(methylthio)phenyl)-7-((5-(methyl(1-methylpiperidin-4-yl)amino)pyridin-2-yl)amino)-1,6-naphthyridin-2(1H)-one] | < 100 nM
10 | CN1CC[C@@H](n2c(=O)c(-c3c(F)cccc3F)cc3cnc(Nc4ccc(F)cn4)cc32)C1 [Compound 152, (R)-3-(2,6-difluorophenyl)-7-((5-fluoropyridin-2-yl)amino)-1-(1-methylpyrrolidin-3-yl)-1,6-naphthyridin-2(1H)-one] | 100 to 1000 nM

Same assay, conditions: read-out: BTK IC50

Row | Compound | IC50
11 | O=c1c(-c2c(F)cccc2F)cc2cnc(Nc3ccc(F)cn3)cc2n1C1CCOC1 (single isomer, unassigned) [Compound 142, (R or S)-3-(2,6-difluorophenyl)-7-((5-fluoropyridin-2-yl)amino)-1-(tetrahydrofuran-3-yl)-1,6-naphthyridin-2(1H)-one] | < 100 nM
12 | CN1CC[C@H](n2c(=O)c(-c3c(F)cccc3F)cc3cnc(Nc4ccc(F)cn4)cc32)C1 [Compound 150, (S)-3-(2,6-difluorophenyl)-7-((5-fluoropyridin-2-yl)amino)-1-(1-methylpyrrolidin-3-yl)-1,6-naphthyridin-2(1H)-one] | < 100 nM
